Test [1] has as its target T1, human β-Secretase (Homo sapiens (Human), UniProt P56817). The experiment in a line: TR-FRET assay. It counts as biochemical. Conditions: sBACE-Fc 2.7 μg/ml, substrate 100 nM, pH 4.5, 15 minutes at RT. As for the experimental part:
The β-secretase enzyme used in the TR-FRET is prepared as follows:
(§1) The cDNA for the soluble part of the human β-Secretase (AA 1-AA 460) was cloned using the ASP2-Fc10-1-IRES-GFP-neoK mammalian expression vector. The gene was fused to the Fc domain of IgG1 (affinity tag) and stably cloned into HEK 293 cells.
(§2) The enzyme (truncated form) was diluted to 6 μg/mL (stock 1.3 mg/mL) and the TruPoint BACE1 Substrate to 200 nM (stock 120 μM) in reaction buffer (NaAcetate, chaps, triton x-100, EDTA pH4.5). Enzyme and compound in dimethylsulphoxide (final DMSO concentration 5%) was mixed and pre-incubated for 10 minutes at RT. Substrate was then added and the reaction was incubated for 15 minutes at RT. The reaction was stopped with the addition of 0.35 vol Stop solution (NaAcetate, pH 9). The fluorescence of the product was measured on a Victor II plate reader with excitation wavelengths of 340-485 nm and emission wavelengths of 590-615 nm. […] The dimethylsulphoxide control, instead of test compound, defined the 100% activity level and 0% activity was defined by wells lacking enzyme (replaced with reaction buffer) or by a saturating dose of a known inhibitor, 2-amino-6-[3-(3-methoxyphenyl)phenyl]-3,6-dimethyl-5H-pyrimidin-4-one.
In general terms: In TR-FRET formats the signal depends on donor and acceptor labels being close together.

Protein sequences, listed by entry. Tags and fused reporters are not part of them. Residues count along the entry.
UniProt P56817, 22-460: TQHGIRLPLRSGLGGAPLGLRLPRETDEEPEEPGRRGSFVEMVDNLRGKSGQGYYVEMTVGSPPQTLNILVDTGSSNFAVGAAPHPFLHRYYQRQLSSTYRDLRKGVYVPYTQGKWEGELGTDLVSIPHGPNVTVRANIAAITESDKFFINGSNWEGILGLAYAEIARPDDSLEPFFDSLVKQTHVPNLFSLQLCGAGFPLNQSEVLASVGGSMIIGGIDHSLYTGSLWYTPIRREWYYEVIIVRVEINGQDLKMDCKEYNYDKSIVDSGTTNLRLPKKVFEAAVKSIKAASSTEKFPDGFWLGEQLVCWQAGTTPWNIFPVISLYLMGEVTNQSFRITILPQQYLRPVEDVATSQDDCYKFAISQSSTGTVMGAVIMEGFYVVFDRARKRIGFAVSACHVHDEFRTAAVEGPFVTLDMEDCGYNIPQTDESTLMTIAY

The target in test [2] is T1, human β-Secretase. The experiment in a line: Diluted TR-FRET assay. Conditions: footnote a: diluted FRET assay, 50 times less enzyme, 6.5 h reaction time at r.t.; read-out: IC50 in TR-FRET assay (IC50 from the diluted FRET assay). The class given is biochemical. The method, then:
as §1, §2
Compounds with a high affinity were further tested in a diluted TR-FRET assay, conditions as described above for the TR-FRET assay, but with 50 times less enzyme and a 6.5 h long reaction time at r.t. in the dark.

Each structure is given as a SMILES string.

A word on the IC50: it is the point on the concentration scale where inhibition reaches its midpoint. As to `CC1=NC2(N=C1N)c1cc(Br)ccc1CCC21CC1` (centres unmarked) [Example 1, 7′-Bromo-5″-methyl-3′,4′-dihydrodispiro[cyclopropane-1,2′-naphthalene-1′,2″-imidazol]-4″-amine], half-maximal inhibition against human β-Secretase [1] (IC50) was put at 4870 nM.

For the molecule `CC1=NC2(N=C1N)c1cc(-c3cncc(Cl)c3)ccc1CCC21CC1` (centres unmarked) [Example 4, 7′-(5-Chloropyridin-3-yl)-5″-methyl-3′,4′-dihydrodispiro[cyclopropane-1,2′-naphthalene-1′,2″-imidazol]-4″-amine], the IC50 on human β-Secretase [2] worked out at 30 nM.

The values above are taken from US9000184B2, “Cyclohexane-1,2′-naphthalene-1′,2″-imidazol compounds and their use as BACE inhibitors” (AstraZeneca AB, priority 2012, dated 2015).
